Laboratory results reported in PubChem BioAssay AID540279 (National Center for Advancing Translational Sciences (NCATS), 2011).
Only a part is listed here, and it is no random draw. Results filed as inconclusive are left out. The source made the active and inactive calls. Calls follow the shape of the dose curve; as a rule, active = well fitted inhibition curve with a large enough effect; inconclusive = small, poorly fitted or top-dose-only effect; inactive = flat fitted curve, though single readings scatter.

Protein sequences, listed by entry. Tags and fused reporters are not part of them. Lines headed by an entry give the natural chain unless they say otherwise; changes in a name come on top.
UniProt Q9Y468: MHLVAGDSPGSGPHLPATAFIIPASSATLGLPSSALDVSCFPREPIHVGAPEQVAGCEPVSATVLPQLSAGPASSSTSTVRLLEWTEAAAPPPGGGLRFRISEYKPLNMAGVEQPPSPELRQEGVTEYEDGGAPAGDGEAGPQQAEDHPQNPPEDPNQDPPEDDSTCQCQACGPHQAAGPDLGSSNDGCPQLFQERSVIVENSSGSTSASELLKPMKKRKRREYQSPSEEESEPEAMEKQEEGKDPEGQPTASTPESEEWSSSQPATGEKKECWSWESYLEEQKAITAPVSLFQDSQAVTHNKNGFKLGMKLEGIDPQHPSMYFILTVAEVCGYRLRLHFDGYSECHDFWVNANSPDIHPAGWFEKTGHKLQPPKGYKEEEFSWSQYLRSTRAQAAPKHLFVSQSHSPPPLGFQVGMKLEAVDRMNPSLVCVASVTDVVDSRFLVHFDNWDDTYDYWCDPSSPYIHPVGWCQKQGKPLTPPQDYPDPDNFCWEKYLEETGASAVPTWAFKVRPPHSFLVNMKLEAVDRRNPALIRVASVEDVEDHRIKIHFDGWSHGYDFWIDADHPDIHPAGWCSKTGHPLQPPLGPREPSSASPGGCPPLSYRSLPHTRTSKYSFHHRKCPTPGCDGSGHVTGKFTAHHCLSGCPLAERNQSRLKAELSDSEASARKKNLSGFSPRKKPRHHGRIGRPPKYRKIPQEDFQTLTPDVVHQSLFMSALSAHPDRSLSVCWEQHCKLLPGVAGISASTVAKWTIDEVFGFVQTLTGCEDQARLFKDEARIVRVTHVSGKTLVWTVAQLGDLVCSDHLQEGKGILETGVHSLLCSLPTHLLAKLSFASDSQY

Target: Lethal(3)malignant brain tumor-like protein 1 (Homo sapiens) (UniProt Q9Y468)
Test: qHTS Assay for the Inhibitors of L3MBTL1: Hit Validation; also: nearly all actives have a fitted effect of over 70% in size
Conditions: L3MBTL1 methyl-lysine binding inhibition, biochemical qHTS
Text: The histone code is comprised of many post-translational modifications that occur mainly in histone tail peptides. The identity and location of these marks are read by a variety of histone binding proteins that are emerging as important regulators of cellular differentiation and development and are increasingly being implicated in numerous disease states. Small molecule probes that disrupt the interaction between histone binding proteins and chromatin would enable a systematic chemical biology study of proteins that read the histone code and could potentially reveal new targets for drug discovery. However, no such small molecules are known. This dearth of quality molecular probes can largely be attributed to the novelty of the target class and the lack of screening assays. This proposal details the development of the first high-throughput screening assay for the discovery of inhibitors of methyl-lysine binding proteins and how it can be used to initiate a full-scale discovery effort for antagonists of histone binding proteins. […]
To each well, 2 uL of L3MBTL1 protein (final 50 nM) and 1 uL biotinylated histone peptide monomethylated at Lys9 [b-AHA-H3(1-15)K9me1] […] Microplates were then be read on an EnVision multilabel plate reader using the 1,536 plate HTS AlphaScreen aperture (excitation time 80 ms, measurement time 240 ms).
Potency is read from the fitted curve at half-maximal effect.

Compound: CCc1nc2c(n1)c1c(non1O)c1c2no[n+]1[O-]
- Potency: active: 6.7 µM
